These results are taken from patent publication US6974837B2, “Compositions comprising sibutramine metabolites in combination with phosphodiesterase inhibitors” (Sepracor Inc., priority 1999, dated 2005).

The chains behind the UniProt entries cited, without tags or fusion partners.
UniProt P31652, whole entry: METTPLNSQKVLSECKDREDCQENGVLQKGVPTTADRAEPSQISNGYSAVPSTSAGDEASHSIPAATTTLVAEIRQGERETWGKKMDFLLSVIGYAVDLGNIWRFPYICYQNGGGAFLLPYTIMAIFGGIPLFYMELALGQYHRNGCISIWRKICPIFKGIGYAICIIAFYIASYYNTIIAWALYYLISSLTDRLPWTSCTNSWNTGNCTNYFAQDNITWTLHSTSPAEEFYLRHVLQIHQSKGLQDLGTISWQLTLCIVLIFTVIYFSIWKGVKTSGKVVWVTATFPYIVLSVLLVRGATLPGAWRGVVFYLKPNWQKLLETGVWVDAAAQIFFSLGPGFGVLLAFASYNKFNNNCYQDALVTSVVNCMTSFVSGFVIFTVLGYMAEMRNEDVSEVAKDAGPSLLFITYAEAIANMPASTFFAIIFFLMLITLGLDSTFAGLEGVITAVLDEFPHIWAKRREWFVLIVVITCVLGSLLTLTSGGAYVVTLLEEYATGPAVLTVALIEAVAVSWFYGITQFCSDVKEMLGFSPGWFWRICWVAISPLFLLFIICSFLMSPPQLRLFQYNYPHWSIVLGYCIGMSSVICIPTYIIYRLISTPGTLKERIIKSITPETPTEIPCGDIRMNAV
UniProt P31645, whole entry: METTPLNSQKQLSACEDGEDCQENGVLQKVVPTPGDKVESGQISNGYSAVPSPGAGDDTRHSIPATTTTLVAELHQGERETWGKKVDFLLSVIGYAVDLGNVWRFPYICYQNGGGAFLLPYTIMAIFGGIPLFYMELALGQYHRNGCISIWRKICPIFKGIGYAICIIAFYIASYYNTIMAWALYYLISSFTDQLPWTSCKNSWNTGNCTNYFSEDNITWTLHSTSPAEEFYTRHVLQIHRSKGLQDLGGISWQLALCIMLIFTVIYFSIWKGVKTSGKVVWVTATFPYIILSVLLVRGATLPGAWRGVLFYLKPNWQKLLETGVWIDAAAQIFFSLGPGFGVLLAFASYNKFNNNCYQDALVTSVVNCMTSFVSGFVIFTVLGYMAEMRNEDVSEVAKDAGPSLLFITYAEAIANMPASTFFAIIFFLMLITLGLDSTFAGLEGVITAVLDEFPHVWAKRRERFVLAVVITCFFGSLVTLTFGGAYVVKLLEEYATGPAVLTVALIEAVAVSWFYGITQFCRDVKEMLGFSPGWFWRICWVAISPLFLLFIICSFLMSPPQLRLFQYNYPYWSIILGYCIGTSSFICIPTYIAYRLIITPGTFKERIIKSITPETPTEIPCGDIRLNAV

pIC50: −log10 of the molar value. Where two headings read alike, the source gives them in different places.

The target of assay [1] is nonselective muscarinic receptor. In words: Binding at the nonselective muscarinic receptor. The conditions noted are these: rat cerebral cortex. The protocol:
(§1) IC50 values (concentration required to inhibit 50% specific binding) were then determined by nonlinear regression analysis of the curves and tabulated below.

The target in assay [2] is serotonin (5-HT) uptake site (Rattus norvegicus, UniProt P31652). In words: biochemical. The protocol:
as §1

For assay [3], the target named is 5-hydroxytryptamine (5HT; serotonin) reuptake (Homo sapiens, UniProt P31645). The conditions noted are these: cited from earlier work.
The mark [4] stands for this setting: read-out: Binding IC50 5-HT Uptake, rat cerebral cortex.

Regarding `CC(C)C[C@@H](N(C)C)C1(c2ccc(Cl)cc2)CCC1` [(R)-Sibutramine, reference compound], the pIC50 is 5.40 in assay [1] and 5.68 in assay [2]. Regarding `CC(C)CC(N)C1(c2ccc(Cl)cc2)CCC1` (racemic) [(R/S)-didesMe, 1-[1-(4-chlorophenyl)cyclobutyl]-3-methylbutylamine], in assay [3], the “in vitro 5-hydroxytryptamine reuptake inhibition, potency relative to sibutramine” value was “more potent”.

Turning to `CN[C@@H](CC(C)C)C1(c2ccc(Cl)cc2)CCC1` [(S)-desMe], the pIC50 in assay [2] was 5.04.

In the case of `CC(C)C[C@H](N(C)C)C1(c2ccc(Cl)cc2)CCC1` [(S)-Sibutramine, reference compound], the values for the pIC50 in assay [1] and in assay [2] were 5.52 and 5.31, respectively. Regarding `CC(C)C[C@@H](N)C1(c2ccc(Cl)cc2)CCC1` [(R)-didesMe], in assay [2] (setting [4]), the pIC50 is 6.85. As for `CN[C@H](CC(C)C)C1(c2ccc(Cl)cc2)CCC1` [(R)-desMe], the pIC50 in assay [2] (setting [4]) was 7.36. With `CC(C)C[C@H](N)C1(c2ccc(Cl)cc2)CCC1` [(S)-didesMe], the pIC50 in assay [2] is 5.37.

As for `CC(C)CC(N(C)C)C1(c2ccc(Cl)cc2)CCC1` (racemic) [(R/S)-Sibutramine, [N-1-[1-(4-chlorophenyl)cyclobutyl]-3-methylbutyl]-N,N-dimethylamine, reference compound], in assay [2] (setting [4]), the pIC50 was 5.55.

Regarding `CNC(CC(C)C)C1(c2ccc(Cl)cc2)CCC1` (racemic) [(R/S)-desMe, 1-(4-chlorophenyl)-N-methyl-2-(2-methylpropyl)-cyclobutanamethamine], the pIC50 in assay [2] was 7.68. Besides, the “in vitro 5-hydroxytryptamine reuptake inhibition, potency relative to sibutramine” value in assay [3] was “more potent”.
